The values that follow are results of earlier work, collected in patent publication US5648396A, “Methods for treating depression and other disorders using optically pure R (-) fluoxetine and monoamine oxidase inhibitor” (Sepracor Inc., priority 1995, dated 1997).

The term Ki denotes the equilibrium dissociation constant of an inhibitor or competing ligand from its target. Usually IC50 stands for the point on the concentration scale where inhibition reaches its midpoint.

One series relates to H1 receptor. As to conditions: relative to effect on 5HT uptake; cited from earlier work.
The target in series [1] is 5HT uptake cortical synaptasomes. As to conditions: cited from earlier work; for Ki: Wong et al 1985; for IC50: Wong et al 1988.
The next series deals with M1 receptor. As to conditions: relative to effect on 5HT uptake; cited from earlier work.
The subject of another series is muscarinic receptors. As to conditions: than tricyclic antidepressants; brain tissue; cited from earlier work.

Take `CNCC[C@@H](Oc1ccc(C(F)(F)F)cc1)c1ccccc1` [R-Fluoxetine, (-)N-methyl-3-phenyl-3-[(α,α,α-trifluoro-p-tolyl)-oxy]-propylamine]: the “affinity for H1 receptor” value in the series with H1 receptor is listed as “relatively little affinity”. For the same compound, in series [1], the inhibitory constant (Ki) was 33 nM and the half-maximal inhibitory concentration (IC50) is 99.5 nM. Also, the “affinity for M1 receptor” value in the series with M1 receptor is reported as “relatively little affinity”.

For `CNCC[C@H](Oc1ccc(C(F)(F)F)cc1)c1ccccc1` [S-Fluoxetine], the “affinity for H1 receptor” value in the series on H1 receptor is “relatively little affinity”. In addition, in series [1], the inhibitory constant (Ki) is 21 nM and the half-inhibitory concentration (IC50) is 61.5 nM. In the series on M1 receptor, the “affinity for M1 receptor” value was “relatively little affinity”.

`CNCCC(Oc1ccc(C(F)(F)F)cc1)c1ccccc1` (racemic) [R,S-Fluoxetine]: in the series with muscarinic receptors, the “binding to muscarinic receptors” value is “much less potently”. The Ki in series [1] was 30 nM.
